The list shows a part of the results.

This assay has as its system A. baumannii ATCC 17978. The assay is described as follows: relative growth (fraction of control); higher = less inhibition. The note with it: 50 µM.
Molecule `COc1ccc(CCNC(=O)[C@@H]2c3ccccc3C(=O)N(CC34CC5CC(CC(C5)C3)C4)[C@H]2c2ccc(CO)cc2)cc1` showed a relative growth of 1.15.
The same measure for `CC(C)CC#Cc1ccc2c(c1)O[C@H](CN(C)C(=O)Cc1cccnc1)[C@@H](C)CN([C@@H](C)CO)S2(=O)=O`: 0.917; for `COC(=O)Cn1c(Cl)nc2c1c(=O)n(C)c(=O)n2C`: 0.936.
In turn, `Cc1[nH]c2ncnn2c(=O)c1NS(C)(=O)=O` displayed a relative growth of 0.978.
`O/N=C/c1c(Cl)cccc1Cl` registered a relative growth of 0.995.
Next, `COc1ccnc(CS(=O)c2nc3cc(OC(F)F)ccc3[nH]2)c1OC` (centres undefined): 1.11; `O=c1c(O)c(-c2ccccc2)oc2cc(O)cc(O)c12`: 1.03; `COc1ccc(-c2coc3cc(O)cc(OC)c3c2=O)cc1`: 1.03.
Next, `CC(=O)NCc1nnnn1-c1ccc(C)cc1`: 1.02; `Nc1no[n+]([O-])c1-c1ccccc1`: 0.917; `C[C@@H](CCO)Nc1nc2c([nH]1)c(=O)n(C)c(=O)n2C`: 0.937.
Consider `C[C@H](CO)N1C[C@H](C)[C@H](CN(C)C(=O)c2ccccn2)Oc2cc(C#Cc3ccccc3)ccc2S1(=O)=O`, for which the relative growth stood at 0.887.
Consider `O=C(C[C@H]1CC[C@@H]2[C@H](COC[C@H](O)CN2C(=O)c2ccc(F)cc2)O1)NCCCN1CCOCC1`, for which the relative growth was found to be 0.915.
With `c1cn(-c2ccc(-n3ccnc3)nn2)cn1`, the relative growth worked out at 1.02.
Consider `C=CCc1ccc(O[C@@H]2O[C@H](CO[C@@H]3O[C@@H](C)[C@H](O)[C@@H](O)[C@H]3O)[C@@H](O)[C@H](O)[C@H]2O)c(O)c1`, for which the relative growth was determined as 0.992.
The molecule `CC(=O)N(C)C[C@@H]1Oc2cc(C#CCN(C)C)ccc2S(=O)(=O)N([C@@H](C)CO)C[C@H]1C` showed a relative growth of 0.907.
The molecule `C[C@H]1CN([C@@H](C)CO)C(=O)Cc2cc(NC(=O)Nc3cc(Cl)cc(Cl)c3)ccc2O[C@H]1CN(C)S(=O)(=O)c1ccc(Oc2ccccc2)cc1` yielded a relative growth of 0.918.
The same measure for `Cc1ccccc1NCC(=O)NN`: 0.95; for `CCOC(=O)c1cn2cn[nH]c2nc1=O`: 0.947.
Next, `CCCCOc1ccc(CC(=O)NO)cc1`: 1.09.
Next, `O=C(C[C@H]1C=C[C@H](NC(=O)CN2CCOCC2)[C@@H](CO)O1)NC1CCC1`: 1.03; `CC(C)CNC(=O)C(=O)NC[C@H]1OCCN1S(=O)(=O)c1ccc2c(c1)OCCO2`: 1.01; `CN(C)Cc1cn(CC[C@@H]2CC[C@H](N)[C@H](CO)O2)nn1`: 1.01.
For the molecule `NC[C@H]1CC[C@H](C(=O)O)CC1`, the relative growth worked out at 0.93.
Next, `Oc1c(Cl)cc(Cl)cc1Sc1cc(Cl)cc(Cl)c1O`: 0.243; `COc1ccc(-c2cnc3c(c2)C(=O)N([C@@H](C)CO)C[C@@H](C)[C@@H](CN(C)C(=O)Cc2cccnc2)O3)cc1`: 1.06.
`COc1ccc(NC(=O)[C@H]2[C@@H](c3ccc(C)cc3)CC(=O)N2C(=O)OCc2ccccc2)c2ncccc12` returned a relative growth of 1.04.
For `NCC[C@@H](O)C(=O)N[C@@H]1C[C@H](N)[C@@H](O[C@H]2O[C@H](CN)[C@@H](O)[C@H](O)[C@H]2O)[C@H](O)[C@H]1O[C@H]1O[C@H](CO)[C@@H](O)[C@H](N)C1O.O` (some centres undefined), the relative growth was 0.16.
For the molecule `O=C1CCOCCN1`, the relative growth turned out to be 0.981.
In turn, `c1cncc(-c2nc3ccc4ccccc4c3c3c2CCCC3)c1` had a relative growth of 0.812.
The molecule `CCC(=O)n1ccc(C(=O)N2CCOCC2)n1` showed a relative growth of 1.09.
`C[C@@H]1CN([C@H](C)CO)C(=O)CCCn2cc(nn2)CO[C@H]1CN(C)C(=O)Nc1ccnc(N2CCOCC2)c1` registered a relative growth of 0.974.
In the case of `CO[C@H]1CN(C)C(=O)c2ccc(NS(C)(=O)=O)cc2OC[C@@H](C)N(C(=O)CN(C)C)C[C@H]1C`, the relative growth was 1.02.
Next, `CCOC(=O)C(C#N)C1=NCCC1` (centres undefined): 1.07; `O=C(C[C@@H]1CC[C@@H]2[C@H](COC[C@@H](O)CN2C(=O)Nc2cccc(F)c2)O1)NCCCN1CCOCC1`: 0.85; `Cc1scc2c1N(C(=O)CN1CCN(C)CC1)c1ccccc1NC2=O.Cl`: 0.386.
The molecule `O=C(N[C@H]1CC[C@H](CCNS(=O)(=O)c2ccccc2)O[C@@H]1CO)c1cnccn1` showed a relative growth of 0.86.
Next, `Cl.O=C(COc1ccc(Cl)cc1)N1CCN(Cc2ccc3c(c2)OCO3)CC1`: 0.877; `C[C@@H]1CN([C@H](C)CO)S(=O)(=O)c2ccc(-c3ccccc3F)cc2O[C@H]1CN(C)S(C)(=O)=O`: 0.838; `Nc1cccn2ncnc12`: 0.948.
In turn, `C=CC(C1=CC(=O)C(OC)=CC1=O)c1ccc(O)cc1` (centres undefined) came in with a relative growth of 1.08.
The same measure for `CC(C)c1c(C(=O)c2ccccc2)c(-c2ccccc2)c(-c2ccc(F)cc2)n1CC[C@@H](O)C[C@@H](O)CC(=O)O`: 0.849; for `CO[C@H]1CN(C)C(=O)c2cc(NS(=O)(=O)CC(F)(F)F)ccc2OC[C@H](C)N(C(=O)c2ccc3c(c2)OCO3)C[C@H]1C`: 1.02.
The same measure for `O=C(C[C@H]1CC[C@H]2[C@@H](COC[C@H](O)CN2C(=O)Nc2cccc(F)c2)O1)NCCCN1CCOCC1`: 0.98.
Next, `CN(C)CC(=O)N[C@H]1CC[C@@H](CCNC(=O)C2CCC2)O[C@H]1CO`: 0.965.
`O=C(O)/C=C/C=C/c1ccc2c(c1)OCO2` came in with a relative growth of 1.11.
In turn, `NC(=O)NCC#Cc1ccc2c(c1)[C@]1(C(=O)N2)[C@H](C(=O)N2CCCCCCC2)[C@H]2C(=O)O[C@H](c3ccccc3)[C@H](c3ccccc3)N2[C@@H]1c1ccc(O)cc1` showed a relative growth of 1.05.
Next, `C(=C\c1ccncc1)/c1ccncc1`: 0.88.
With `O=C(/C=C/c1ccc(O)cc1)c1ccccc1`, the relative growth was determined as 0.864.
Next, `COc1ccccc1S(=O)(=O)N[C@H]1C=C[C@H](CC(=O)N2CCN(C)CC2)O[C@@H]1CO`: 1.04.
The molecule `Cc1cccc(N2C[C@@H](CN)OC2=O)c1` came in with a relative growth of 0.982.
Next, `O=C(N[C@H]1CC[C@@H](CCNS(=O)(=O)c2ccccc2)O[C@@H]1CO)c1cnccn1`: 1.07; `Cc1ccccc1S(=O)(=O)N1C[C@@H](O)COC[C@H]2O[C@H](CC(=O)N3CCN(C)CC3)CC[C@@H]21`: 1.13.
The same measure for `CCOc1ccc(Cc2cc([C@@H]3O[C@H](CO)[C@@H](O)[C@H](O)[C@H]3O)ccc2Cl)cc1`: 1.03; for `COc1ccc(CN(CCN(C)C)c2ncccn2)cc1.Cl`: 0.932; for `COCCOC(=O)N1C(=O)[C@@]2(c3cc(C#Cc4ccc(OC)cc4)ccc31)[C@H](c1ccccc1OCCO)N1[C@H](c3ccccc3)[C@H](c3ccccc3)OC(=O)[C@H]1[C@@H]2C(=O)NC[C@H](O)c1ccccc1`: 1.17.
Molecule `CCCNC(=O)C[C@H]1CC[C@H]2[C@@H](COC[C@@H](O)CN2S(=O)(=O)c2ccc(Oc3ccccc3)cc2)O1` yielded a relative growth of 1.05.
The same measure for `Oc1cc(O)c2c(c1)O[C@H](c1cc(O)c(O)c(O)c1)[C@H](O)[C@H]2c1c(O)cc(O)c2c1O[C@H](c1cc(O)c(O)c(O)c1)[C@H](O)[C@H]2c1c(O)cc(O)c2c1O[C@H](c1cc(O)c(O)c(O)c1)[C@H](O)C2`: 1; for `C[C@@H]1CN([C@H](C)CO)C(=O)c2cc(-c3ccc(C(=O)N(C)C)cc3)cnc2O[C@H]1CN(C)C(=O)CN(C)C`: 0.946.
The same measure for `N#CCN(CC#N)C(=O)c1ccco1`: 0.862; for `CC(C)N1C[C@@H](CO)CC1=O`: 1.02.
Next, `O=C(C[C@@H]1CC=CCCC(=O)OC[C@H](Cc2c[nH]c3ccccc23)NC1=O)N[C@@H](CO)Cc1ccccc1`: 1.02; `C(=N\c1ccc2ccccc2c1)/Nc1ccc2ccccc2c1`: 0.271.
Regarding `C=C(C)C1CC=C(C)CC1` (centres undefined), the relative growth came to 1.01.
Next, `Cc1ccc(/C=c2\sc3ncnn3c2=O)o1`: 1.08.
Next, `CCn1[nH]c(N)c2c(=O)[nH]c(=O)cc1-2`: 0.889; `c1nc(N2CCOCC2)nc(N2CCOCC2)n1`: 0.999.
Next, `Cn1c(S(=O)(=O)CC(N)=O)nc2ccccc21`: 1.16.
Molecule `Cn1c(=O)c2cc(S(=O)(=O)NCCC(=O)NC3CCCC3)ccc2n(C)c1=O` returned a relative growth of 1.04.
As to `O=S(=O)(NCC[C@H]1CC[C@@H](NS(=O)(=O)c2ccccc2Cl)[C@@H](CO)O1)c1ccc(Cl)cc1`, the relative growth is 0.911.
Next, `CC(=O)[C@H]1CC[C@H]2[C@@H]3CC=C4C[C@@H](OC(=O)CCC(=O)O)CC[C@]4(C)[C@H]3CC[C@]12C`: 1.24; `COc1ccc(-c2cc(=O)c3c(O)c(OC)c(O[C@H]4O[C@H](CO[C@@H]5O[C@@H](C)[C@H](O)[C@@H](O)[C@H]5O)[C@@H](O)[C@H](O)[C@H]4O)cc3o2)cc1`: 1.06.
For the molecule `COCC(=O)Nc1ccc2c(c1)C(=O)N(C)C[C@H](OC)[C@@H](C)CN(Cc1ccccc1F)[C@@H](C)CO2`, the relative growth is 0.939.
Next, `COc1ccccc1CNC(=O)C[C@H]1C[C@@H]2c3cc(NC(=O)c4ccc5c(c4)OCO5)ccc3O[C@@H]2[C@@H](CO)O1`: 1.06; `C=C1C/C=C(\C)CC[C@@H]2[C@@H]1CC2(C)C`: 1.14.
For `CCN([NH2+][O-])c1ccc(O)c(O)c1`, the relative growth came to 1.01.
With `COc1ccc(-n2nc(CCC(=O)N(C)O)cc2-c2ccc(Cl)cc2)cc1`, the relative growth was determined as 1.05.
In the case of `CO[C@@H]1CN(C)C(=O)c2cc(NS(=O)(=O)CC(F)(F)F)ccc2OC[C@H](C)N(Cc2ccccn2)C[C@@H]1C`, the relative growth amounted to 1.01.
`O=C(Cc1ccccn1)NCC[C@@H]1CC[C@@H](NC(=O)CN2CCOCC2)[C@@H](CO)O1` showed a relative growth of 1.19.
Next, `O=C(O)c1cc(O)c(O)c(O)c1`: 1.39; `CCn1c(N)c(C(N)=O)sc1=S`: 0.951; `CCN(CC)C(=O)N1CCN(C)CC1`: 1.02.
Molecule `CCCCc1c(C)nc2ccc(Br)cc2c1SC(N)N` displayed a relative growth of 1.02.
In turn, `Cn1cnc(S(=O)(=O)N[C@@H]2C=C[C@H](CC(=O)NCC3CC3)O[C@@H]2CO)c1` showed a relative growth of 1.13.
Next, `COc1c(OC)c2occc2c2oc(=O)ccc12`: 1.22.
`C[C@@H]1CN([C@@H](C)CO)C(=O)CCCn2nncc2CO[C@H]1CN(C)S(=O)(=O)c1ccc(Cl)cc1` yielded a relative growth of 0.964.
As to `CC(C)=CCC/C(C)=C/COc1ccc2ccc(=O)oc2c1`, the relative growth stood at 1.29.
The same measure for `CCc1c(C(=O)OC)nnn1-c1nonc1N`: 1.04.
Next, `CC1(C)C(=O)[C@@H]2C[C@@]3(O)C4=CC(=O)O[C@@H](c5ccoc5)[C@]4(C)CCC3[C@](C)(C2=O)[C@H]1CC(=O)O` (some centres undefined): 0.886.

These data come from published antibiotic growth screens (doi:10.1038/s41589-023-01349-8).
